# This is a selection: effects in other tests are not listed, and their absence says nothing.
# Key:
# [1] = system: Olr710; assay: DREAM analysis: OR mRNA level in olfactory epithelium after TNT exposure (RNA-Seq, qPCR); conditions: rats, breather bags containing 5% TNT, five hours of exposure; RNA-Seq and qPCR
# Text: (§1) To identify the odorant receptors that are activated by TNT, a technique called “DREAM” (i.e. Deorphanization of Receptors based on Expression Alterations of mRNA levels) was used, which takes advantage of the generalized reduction in odorant receptor mRNA concentration that occurs after specific OSN activation (von der Weid, B., Rossier, D., Lindup, M., Tuberosa, J., Widmer, A., Col, J. D., Kan, C., Carleton, A., and Rodriguez, I. (2015). Large-scale transcriptional profiling of chemosensory neurons identifies receptor-ligand pairs in vivo. Nat Neurosci 18, 1455-1463; see also US2017/0285009, both encorporated herein by reference). Rats, Rattus norvegicus, (n=8 in each group was calculated to be a sufficient sample sin using an alpha of 0.05, a power of 0.95, an effect size d of 1.8 in a one tailed Mann-Whitney U test) were exposed to vehicle control (BLANK) and “breather bags” containing 5% TNT, respectively. Breather bags were obtained from Signature Science, LLC and are commonly used to train Explosive Detection Dogs. After five hours of odor exposure, rats were sacrificed and mRNA was extracted out of the rat olfactory epithelial (OE) tissue using TRIzol® reagent. Subsequent deep sequencing of an olfactory cDNA library corresponding to each animal, allowed calculation of the fold difference in odorant receptor mRNA concentrations between the different groups using a threshold corresponding to genes located outside a 99% confidence interval of a fitted Gaussian distribution. […]
# (§2) In order to validate the identified TNT-responsive OR genes, the DREAM rat RNA was further analyzed by qPCR. […] The qPCR analysis shown in FIG. 4 illustrates the normalized relative Quantities (NRQ) for eight rats in each group (BLANK vs TNT).
# (§3) A comparison between the relative fold changes calculated using both qPCR (diamonds) and RNA-Seq analysis (circles) for the rat TNT-responsive ORs Olr710, Olr300, and Olr319 is shown in FIG. 6. […] Olfactory transcript levels were determined after five hours of TNT-exposure. […]
# [2] = system: Olr300; assay: as above; conditions: rats, breather bags containing 5% TNT, five hours of exposure; RNA-Seq and qPCR
# Text: as §1, §2, §3
# [3] = system: Olr319; assay: as above; conditions: rats, breather bags containing 5% TNT, five hours of exposure; RNA-Seq and qPCR
# Text: as §1, §2, §3
# [4] = system: TNT-responsive OR; assay: cAMP-Glo assay on isolated olfactory cilia; conditions: 15 minutes at 37° C.
# Description: The assay employed to test activation of TNT-responsive ORs takes advantage of the fact that ORs are G-protein coupled receptors (GPCRs) that couple with adenylate cyclase III. Activated adenylate cyclase produces cyclic AMP (cAMP), which then stimulates protein kinase A (PKA) activity, leading to a decrease in ATP levels. This decrease in ATP is measured using a luciferase reaction, using a commercially available assay, for example, the Promega cAMP-Glo™ Assay. In this assay, which can be adapted for a 384 well format, a lower level of ATP leads to decreased bioluminescence, indicating increased activity of the OR.
# 100 ng of freshly-thawed cilia isolated from either (1) mice that preferentially express a TNT-responsive OR or (2) wild type mice is placed in triplicate wells and incubated with control (solvent alone) or odor (i.e., TNT) for 15 minutes at 37° C. All subsequent steps are performed as per manufacturer's instructions for the Promega cAMP-Glo™ Assay. Analysis for cilia activation by TNT is performed by calculating the difference in the bioluminescent readout (DRLU) between TNT-treated and untreated cilia for the cilia isolated from either (1) mice that preferentially express a TNT-responsive OR or (2) wild type mice.
# [5] = system: Olfr297; assay: TNT DREAM analysis on mice; conditions: mice n=7, TNT-exposed vs control, same protocol as rats; 0.03 p-value
# Text: To identify the odorant receptors that are activated by TNT, a technique called “DREAM” (i.e. Deorphanization of Receptors based on Expression Alterations of mRNA levels) was used, which takes advantage of the generalized reduction in odorant receptor mRNA concentration that occurs after specific OSN activation (von der Weid, B., Rossier, D., Lindup, M., Tuberosa, J., Widmer, A., Col, J. D., Kan, C., Carleton, A., and Rodriguez, I. (2015). Large-scale transcriptional profiling of chemosensory neurons identifies receptor-ligand pairs in vivo. Nat Neurosci 18, 1455-1463; see also US2017/0285009, both encorporated herein by reference). Rats, Rattus norvegicus, (n=8 in each group was calculated to be a sufficient sample sin using an alpha of 0.05, a power of 0.95, an effect size d of 1.8 in a one tailed Mann-Whitney U test) were exposed to vehicle control (BLANK) and “breather bags” containing 5% TNT, respectively. Breather bags were obtained from Signature Science, LLC and are commonly used to train Explosive Detection Dogs. After five hours of odor exposure, rats were sacrificed and mRNA was extracted out of the rat olfactory epithelial (OE) tissue using TRIzol® reagent. […]
compound,measurement,setting,value
Cc1c([N+](=O)[O-])cc([N+](=O)[O-])cc1[N+](=O)[O-],expression of Olr710 upon exposure to TNT (TNT/Blank),[1],downregulated
same,expression of Olr300 upon exposure to TNT (TNT/Blank),[2],downregulated
same,expression of Olr319 upon exposure to TNT (TNT/Blank),[3],downregulated
same,"activation of OR (decreased ATP levels, DRLU)",[4]; cilia from mice that preferentially express a TNT-responsive OR,activated
same,"activation of ORs (ATP levels, DRLU)",[4]; wild type cilia,neither TNT nor the odor control causes activation
same,fold change of Olfr297 expression,[5],0.37 fold

# From patent US11255830B2
